This is a selection; strong and weak results do not stand in their true shares. Calls of active or inactive are those of the source.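 Rule for the calls: active = activation above the mean of all tested compounds plus 3 SD (cut at about 5.5% in these data); inactive = the rest.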

The assay has as its system DAF-12 nuclear receptor (Haemonchus contortus). Kind of assay: hcDAF-12 driven luciferase reporter activation – cell-based, luminescence, HEK293, lit1-tk-luc reporter, primary screen (AID 652067).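 Note: 100% = response to 3 µM Δ7-dafachronic acid high control.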 The settings on record: HEK293 hcDAF-12 lit1-tk-luc reporter, at 6.8 µM, active compounds read high, 0% DMSO, 100% Δ7-dafachronic acid. In general terms: A reporter such as luciferase makes a cellular process visible.
With `Clc1ccc(Cl)c(NC2=NCC(CBr)S2)c1` (stereo unspecified), the activation was inactive: -0.82%.
With `CN1CCCC(OC(=O)C(c2ccccc2)c2ccccc2)C1` (stereo unspecified), the activation was inactive: 1.34%.
To `COc1ccccc1OP(=O)(Nc1ccc(C)cn1)Oc1ccccc1OC` belongs inactive: 0.61%; to `Cc1ccc(OP(=O)(Nc2nccs2)Oc2ccc(C)cc2)cc1`, inactive: -1.73%.
For `CN(C(=O)Cc1ccc(Cl)c(Cl)c1)[C@H]1CCCC[C@H]1N1CCCC1` the value was inactive: -1.25%.
For `Cc1ccc(N/C(=N/P(=O)(N2CCOCC2)N2CCOCC2)N2CCOCC2)cc1` the value was inactive: 0.87%; for `NC(=O)c1cc([N+](=O)[O-])cc([N+](=O)[O-])c1N`, inactive: -0.75%; for `Oc1ccccc1CNc1ccccn1`, inactive: -1.15%.
Regarding `O=C(NC(Sc1ccncn1)C(Cl)(Cl)Cl)c1ccccc1` (stereo unspecified), the activation is inactive: -0.44%.
With `CC(C)CC(=O)NC(Sc1ccc(Cl)cc1)C(Cl)(Cl)Cl` (stereo unspecified), the activation is inactive: 1.19%.
As for `Nc1cc(N)c2nonc2c1[N+](=O)[O-]`, the activation was inactive: 0.94%.
To `CCn1c(=O)n(C2CCN(CC3CCCCCCC3)C[C@H]2CO)c2ccccc21` (stereo partly specified) belongs inactive: 0%.
On to `CCOP(=O)(Nc1ccccc1)OCC`, for which the activation is inactive: -1.96%.
To `Cc1cc(SC(NC(=O)c2ccc(F)cc2)C(Cl)(Cl)Cl)ncn1` (stereo unspecified) belongs inactive: -0.23%; to `Cc1ccc(NP(=O)(Oc2ccccc2F)Oc2ccccc2F)nc1`, inactive: -0.27%; to `CN(C(=O)Cc1ccc(Cl)c(Cl)c1)[C@H]1CCCC[C@@H]1N1CCCC1`, inactive: -0.67%.
Consider `CN(C)P(=O)(N(C)C)n1c(Nc2ccccc2)nnc1-c1ccccc1`, for which the activation is inactive: 0.57%.
As for `O=P(Nc1nc2ccc(Cl)cc2s1)(c1ccccc1)c1ccccc1`, the activation was inactive: -0.21%.
Regarding `O=C(O)c1ccccc1[As](=O)(O)O`, the activation was inactive: 2.28%.
Take `CC(=O)Nc1ccc([As](=O)(O)O)cc1`: the activation was inactive: 2.6%.
For `CCCC1OP(N)(=O)OCC1CC` (stereo unspecified), the activation is inactive: 1.17%.
To `Nc1cccc2ccc([As](=O)(O)O)cc12` belongs inactive: 1.6%; to `CN(C(=O)Cc1ccccc1)C1CC[C@@]2(CCCO2)C[C@@H]1N1CCCC1` (stereo partly specified), inactive: 0.2%.
For the molecule `CCN(N=Nc1nonc1N)c1nonc1N`, the activation is inactive: -3.24%.
With `O=C(Nc1cc([As](=O)(O)O)ccc1O)c1ccccc1`, the activation is inactive: -0.56%.
To `O=P1(N(CCCl)CCCl)OCCCS1` (stereo unspecified) belongs inactive: 0.56%.
For `O=C(O)CNc1ccc([As](=O)(O)O)cc1` the value was inactive: -1.31%; for `O=[N+]([O-])c1cccc(NC2=NCC(CBr)S2)c1` (stereo unspecified), inactive: -0.56%; for `COC(=O)C1(C)COP(=O)(Nc2ccccc2)OC1` (stereo unspecified), inactive: -0.5%.
To `O=[N+]([O-])c1ncn(CCn2ncnc2[N+](=O)[O-])n1` belongs inactive: -1.05%; to `CC(C)(C)C(=O)NC(Sc1ccncn1)C(Cl)(Cl)Cl` (stereo unspecified), inactive: -1.63%.
In the case of `Cc1ccc(NP(=O)(Oc2ccccc2)Oc2ccccc2)nc1`, the activation was inactive: -1.63%.
To `CCc1nc2c(n1)c1c(non1O)c1c2no[n+]1[O-]` belongs inactive: -1.33%; to `O=[N+]([O-])c1cc([N+](=O)[O-])c(CCNc2ccccc2)c([N+](=O)[O-])c1`, inactive: 1.03%; to `O=[N+]([O-])c1cccc2n[nH]nc12`, inactive: -0.91%.
As to `CC(=O)N1C2C3N(C(C)=O)C1C1N(C(C)=O)C(C(N1C(C)=O)N3C(C)=O)N2C(C)=O`, the activation was inactive: -0.23%.
To `COc1ccc(C2=NCC(CBr)S2)cc1` (stereo unspecified) belongs inactive: -0.49%; to `c1cc(-c2nn[nH]n2)ccc1-c1nn[nH]n1`, inactive: 1.49%.
To `CC1CCN(C(=O)Oc2c(Cl)cc(Cl)c3cccnc23)CC1` belongs inactive: -2.33%; to `CC(C)=N/N=C(\N)N[N+](=O)[O-]`, inactive: -1.14%; to `CC(C)c1nc(Nc2ccccc2)n(P(=O)(N(C)C)N(C)C)n1`, inactive: -1%.
`CN(C)C(=O)OCCc1n(C)cc[n+]1C`: the activation was inactive: -0.32%.
Regarding `CCN(/C(=N/P(=O)(N1CCOCC1)N1CCOCC1)N1CCOCC1)c1ccc(OC)cc1`, the activation was active: 6.32%.
`Nc1ccc([As](=O)(O)c2ccc(N)cc2)cc1`: the activation was inactive: -0.99%.
For the molecule `C[N+]1=C2C=CC=CC=C2SC12C([N+](=O)[O-])=CC([N+](=O)[O-])=C[C-]2[N+](=O)[O-]` (stereo unspecified), the activation is inactive: -9.07%.
For `c1nnnn1CCn1cnnn1` the value was inactive: -1.73%; for `CC(C)C(=O)NC(Sc1ccccc1)C(Cl)(Cl)Cl` (stereo unspecified), inactive: -0.09%; for `O=P(Nc1nccs1)(c1ccccc1)c1ccccc1`, inactive: -1.19%.
To `O=P(Nc1nc2ccccc2s1)(c1ccccc1)c1ccccc1` belongs inactive: 3.85%; to `C[C@H]1OP(=O)(Oc2ccccc2)[C@H](O)[C@H](O)[C@H]1N=[N+]=[N-]` (stereo partly specified), inactive: -0.39%.
Turning to `O=P(Nc1ccccn1)(c1ccc(Br)cc1)c1ccc(Br)cc1`, the activation is inactive: -0.51%.
In the case of `CN(C)C1(CNC(=O)c2ccc(Cl)c(S(N)(=O)=O)c2)CCCCC1`, the activation is inactive: -0.73%.
With `Nc1ccc(CCCCOc2ccccc2)cc1`, the activation was inactive: 1.33%.
As for `COc1ccc(N)c([N+](=O)[O-])c1[N+](=O)[O-]`, the activation was inactive: 0.04%.
Regarding `O=C(OC1CN2CCC1CC2)c1cccc(Cl)c1` (stereo unspecified), the activation is inactive: 0.14%.
For `C/C(N)=N\P(=O)(OCc1ccccc1)OCc1ccccc1`, the activation was inactive: -0.99%.
For `Nc1ccc([As](=O)(O)c2ccc([N+](=O)[O-])cc2)cc1` the value was inactive: -1.68%.
With `C(Cc1nn[nH]n1)Cc1nn[nH]n1`, the activation is inactive: 0.38%.
Regarding `O=[As](O)(c1ccccc1)c1ccc(O)cc1`, the activation was inactive: -1.01%.
To `CC(=O)NC(SC(=S)N(C)C)C(Cl)(Cl)Cl` (stereo unspecified) belongs inactive: -1.4%.
For `O=[N+]([O-])c1ncn(CCn2cnc([N+](=O)[O-])n2)n1`, the activation was inactive: -0.29%.
Consider `O=P1(N(CCCl)CCCl)OCCC2CCCCN21` (stereo unspecified), for which the activation was inactive: 0.29%.
For `c1ccc(-c2nn[nH]n2)c(-c2nn[nH]n2)c1` the value was inactive: 0.23%; for `Cc1ccc(NP(=O)(Oc2cccc(C)c2)Oc2cccc(C)c2)nc1`, inactive: 1.34%; for `CCNC(=S)/N=C(\N)N[N+](=O)[O-]`, inactive: 0.79%.
For the molecule `O=C(NC1CCS(=O)(=O)C1)NP(=S)(Oc1ccccc1)Oc1ccccc1` (stereo unspecified), the activation is inactive: -1.07%.

For the origin of these results see PubChem BioAssay AID652067 (The Scripps Research Institute Molecular Screening Center, 2013).
